Source: ChEMBL document CHEMBL2380202, “Identification of substituted 2-thio-6-oxo-1,6-dihydropyrimidines as inhibitors of human lactate dehydrogenase” (Bioorg Med Chem Lett, 2013)

Target: L-lactate dehydrogenase A chain (Homo sapiens, UniProt P00338)
Assay: Inhibition of human recombinant carboxy-terminal his-tagged LDHA (1 to 331) expressed in Escherichia coli using pyruvate as substrate after 10 mins by UV endpoint analysis

Question: For NC(=O)C(=O)O [OXAMATE], which IC50 is on record?
Answer: 57.2 µM
